Compound activity from PubChem.
An excerpt weighted towards active compounds, which were near 4.2% of everything screened.
HDAC3 inh = HDAC3 deacetylase inhibitors, primary screen, biochemical, fluorescence, cell-free homogeneous. recombinant HDAC3, fluorogenic peptide/trypsin coupled. inhibition, % at 8.3 µM. 320,000 compounds, 0.15% hits. AID 2718, 2010; in the data active = inhibition above about 26%, passing the limit was not always enough; inconclusive = no clear call, values can overlap the other calls
MC4R antag cAMP = MC4R antagonists of cAMP signaling, primary screen, cell-based, TR-FRET, antagonist arm of biased-ligand search | inhibition, % at 6.5 µM | AID 540295, 2011 | Melanocortin receptor 4 (Homo sapiens), P32245 | 360,000 compounds, 0.48% hits | MC4R-expressing cells, MTII-stimulated cAMP, LANCE TR-FRET;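 active = inhibition above its plate's cutoff, the mean of tested wells on that plate plus 3 SD, cut at about 29% in these data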
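Material: U2OS-MC4R stable cell line | Reagent: Melanotan II challenge after compound preincubation | Doses: One concentration, 6.5 µM nominal | Incubation: 30-min compound preincubation, 1-h Melanotan II challenge, 1-h detection, room temperature | Signal: TR-FRET cAMP assay | Replicates: One well per compound, no replicates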
NALP1 yeast inh = NALP1 inflammasome inhibitors in reconstituted yeast, colorimetric, S. cerevisiae, triplicate retest; S. cerevisiae NALP1/ASC/caspase-1 growth, X-gal OD620, 72 h; inhibition, % at 10 µM; 280,000 compounds, 0.61% hits; AID 2071, 2009; in the data active = inhibition mostly above about 24%, no sharp cut-off; inactive = mostly below about 32%
UUG fidelity = yeast start codon fidelity modulation; activity score, % at 18.7 µM; actives 0.13% (n = 350,000); S. cerevisiae UUG-firefly luciferase reporter, luminescence/redox ratio; AID 602363;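 active means replicate mean at a twofold rise or more, about +100% in these data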;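 further: firefly luciferase made from a UUG start codon reports start codon fidelity; reporter light over untreated wells divided by growth signal over untreated wells; some hits fall short of that in this replicate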
ALR H2O2 inh = inhibitors of human sulfhydryl oxidase ALR; AID 485317; purified ALR, DTT oxidation, H2O2 HRP-luminol luminescence; inhibition, % (concentration not given with the values); P55789; hit rate 3.8% among 290,000;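 active = mean and each replicate at 75% or more; inconclusive = only one of the two met; inactive = neither met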;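 note: stock transfer was 7.5 nL into about 7.5 µL; 0% = neutral wells and 100% = wells with inactivated enzyme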
MC4R ag barr = MC4R agonists recruiting beta-arrestin, primary screen, cell-based, luminescence, agonist arm of biased-ligand search; activation, % at 8.9 µM; Melanocortin receptor 4 (Homo sapiens), P32245; 360,000 compounds, 0.98% hits; U2OS MC4R beta-arrestin complementation; percent of melanotan II response, DMSO zero;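 active = activation above a per-plate cutoff, the mean activation of sample wells on that plate plus 3 SD, cut at about 8% in these data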
U2OS cAMP counter = nonselective cAMP signaling inhibitors, parental cells, counter-screen for MC4R biased antagonist project, cell-based, TR-FRET, U2OS, forskolin, triplicate; shares compounds with MC4R antag cAMP; LANCE TR-FRET; inhibition, % at 6.5 µM; 1,600 compounds, 26% hits;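 active = mean inhibition over triplicates above the low-control well mean plus 3 SD, set per campaign, cut at about 13% in these data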;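 note: signal is single emission at 671 nm which falls as cellular cAMP rises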
MC4R cAMP antag = MC4R cAMP antagonists, retest, confirmation, cell-based, TR-FRET; AID 602195, 2012; 1,600 compounds, 27% hits; inhibition, % at 6.5 µM; MC4R-expressing cells, MTII-stimulated cAMP; shares compounds with MC4R antag cAMP; in the data active = inhibition above about 29%
Of the large screens only hits and unclear results are named; the others gave an inactive call (follow-up assays come after a bar, where they were run).

Sequences of proteins named here, by UniProt entry; tags and fusion partners are left off.
Melanocortin receptor 4 (Homo sapiens), P32245, UniProt P32245, whole entry, looked up: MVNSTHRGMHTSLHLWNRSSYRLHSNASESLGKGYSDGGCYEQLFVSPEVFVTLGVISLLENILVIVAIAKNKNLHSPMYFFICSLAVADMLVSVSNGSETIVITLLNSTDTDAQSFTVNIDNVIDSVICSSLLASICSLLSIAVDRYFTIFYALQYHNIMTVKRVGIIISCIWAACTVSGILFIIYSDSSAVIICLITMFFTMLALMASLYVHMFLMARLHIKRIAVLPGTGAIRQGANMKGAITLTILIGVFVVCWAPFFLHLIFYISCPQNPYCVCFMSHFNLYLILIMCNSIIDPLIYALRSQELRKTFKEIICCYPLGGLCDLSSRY

CC(C)c1nnc(NC(=O)c2nc(S(=O)(=O)Cc3ccccc3F)ncc2Cl)s1	none (no result: MC4R antag cAMP, UUG fidelity, MC4R ag barr)
CCC(=O)N1C[C@@H](C)[C@@H](OC)CN(C)C(=O)c2cc(NS(C)(=O)=O)ccc2OC[C@H]1C	none (no result: HDAC3 inh, MC4R antag cAMP, NALP1 yeast inh, ALR H2O2 inh, MC4R ag barr)
CSc1nnc(NC(=O)c2nc(S(=O)(=O)Cc3cccc(C)c3)ncc2Cl)s1	MC4R antag cAMP 59 | U2OS cAMP counter 29 | MC4R cAMP antag 48
C=CCSc1nnc(NC(=O)c2nc(SCC)ncc2Cl)s1	none
CCSc1nnc(NC(=O)c2nc(S(=O)(=O)Cc3ccc(F)cc3)ncc2Cl)s1	MC4R antag cAMP 49 | U2OS cAMP counter 14 | MC4R cAMP antag inactive
CSc1nnc(NC(=O)c2nc(S(=O)(=O)Cc3ccccc3F)ncc2Cl)s1	MC4R antag cAMP 41 | U2OS cAMP counter 18 | MC4R cAMP antag 38
Cc1nnc(NC(=O)c2nc(S(=O)(=O)Cc3ccccc3C)ncc2Cl)s1	none
CN(C)CC(=O)N1[C@@H]2c3ccc(C4=CCCC4)c(=O)n3C[C@H]1[C@H](CO)[C@H]2C(=O)NCC1CCCCC1	none (no result: HDAC3 inh, MC4R antag cAMP, NALP1 yeast inh, ALR H2O2 inh, MC4R ag barr)
Cc1ccc(S(=O)(=O)Nc2ccc3c(c2)CC(=O)N([C@H](C)CO)C[C@H](C)[C@H](CN(C)C(=O)Nc2ccc(F)cc2)O3)cc1	none (no result: HDAC3 inh, MC4R antag cAMP, NALP1 yeast inh, ALR H2O2 inh, MC4R ag barr)
COCCNC(=O)C[C@@H]1C[C@@H]2c3cc(NC(=O)c4cccnc4)ccc3O[C@@H]2[C@H](CO)O1	none (no result: HDAC3 inh, MC4R antag cAMP, NALP1 yeast inh, ALR H2O2 inh, MC4R ag barr)
COc1cc(NC(=O)c2cccc3c(-c4cnn(C)c4)coc23)cc(OC)c1OC	MC4R antag cAMP 46 (no result: HDAC3 inh, NALP1 yeast inh, ALR H2O2 inh) | U2OS cAMP counter inactive | MC4R cAMP antag inactive
COc1ccc(NC(=O)c2cccc3c(-c4cnn(C)c4)coc23)cc1	none (no result: HDAC3 inh, NALP1 yeast inh, ALR H2O2 inh)
CCN(CC)CCCNC(=O)CCC(=O)Nc1ccc2nc(N3CCC(C)CC3)cc(C)c2c1	MC4R antag cAMP 37, ALR H2O2 inh inconclusive | U2OS cAMP counter inactive | MC4R cAMP antag inactive
C[C@@H]1CN([C@@H](C)CO)C(=O)c2cc(NC(=O)NC3CCCCC3)ccc2O[C@@H](C)CCCCO[C@@H]1CN(C)Cc1ccc(C(F)(F)F)cc1	none (no result: HDAC3 inh, MC4R antag cAMP, NALP1 yeast inh, ALR H2O2 inh, MC4R ag barr)
C[C@@H]1CN([C@H](C)CO)C(=O)Cc2cc(NC(=O)Cn3cnnn3)ccc2O[C@H]1CN(C)Cc1ccc2c(c1)OCO2	none (no result: HDAC3 inh, MC4R antag cAMP, NALP1 yeast inh, ALR H2O2 inh, MC4R ag barr)
Cc1ccc(S(=O)(=O)NCC(=O)OCc2csc(-c3ccccc3)n2)cc1	MC4R antag cAMP 30 (no result: NALP1 yeast inh) | U2OS cAMP counter 15 | MC4R cAMP antag inactive
COC(=O)c1ccc(COC(=O)CNS(=O)(=O)c2ccc(C)cc2)cc1	MC4R antag cAMP 40 (no result: UUG fidelity) | U2OS cAMP counter 19 | MC4R cAMP antag inactive
COc1cccc(-c2ccc3n(c2=O)C[C@H]2[C@H](CO)[C@@H](C(=O)N(C)C)N(C(=O)C4CCCC4)[C@@H]32)c1	none (no result: HDAC3 inh, MC4R antag cAMP, NALP1 yeast inh, ALR H2O2 inh, MC4R ag barr)
C[C@H](CO)N1C[C@H](C)[C@@H](CN(C)C(=O)Nc2cccc3ccccc23)OCc2cnnn2CCCC1=O	none (no result: HDAC3 inh, MC4R antag cAMP, NALP1 yeast inh, ALR H2O2 inh, MC4R ag barr)
O=C(c1c(F)cccc1F)N1CCC(n2nnc3cc(C(F)(F)F)ccc32)CC1	MC4R antag cAMP 31 (no result: UUG fidelity) | U2OS cAMP counter inactive | MC4R cAMP antag inactive
C[C@@H]1CN([C@@H](C)CO)C(=O)Cc2cc(NS(C)(=O)=O)ccc2O[C@@H]1CN(C)C(=O)Nc1ccc2c(c1)OCO2	none (no result: HDAC3 inh, MC4R antag cAMP, NALP1 yeast inh, ALR H2O2 inh, MC4R ag barr)
COc1ccc(C(=O)NCC(=O)NCC(=O)OCC(=O)c2ccc(Br)cc2)cc1	none
O=C(CNC(=O)c1ccccc1)OCN1C(=O)c2ccccc2C1=O	MC4R antag cAMP 31 (no result: HDAC3 inh, NALP1 yeast inh, ALR H2O2 inh) | U2OS cAMP counter 14 | MC4R cAMP antag inactive
O=C(CNC(=O)c1ccc(Br)cc1)NCC(=O)OCC(=O)c1ccccc1	MC4R antag cAMP 42 (no result: UUG fidelity) | U2OS cAMP counter 14 | MC4R cAMP antag inactive
